Reference: patent publication US6586461B1, “Prenyl transferase inhibitors” (Wayne State University, priority 1998, dated 2003)

Test system: SCID mouse
Settings: for Toxic response after 0.1 mg/kg: SCID mouse, 0.1 mg/kg injected; for Toxic response after 0.1 mg/kg / Adverse effects after further 1 mg/kg: after 48 hours; for Adverse effects during whole treatment incl. additional 10 mg/kg: same mouse, 0.1, 1 and 10 mg/kg in sequence; for Adverse effects after further 1 mg/kg: same mouse

Substance | Toxic response after 0.1 mg/kg | Adverse effects during whole treatment incl. additional 10 mg/kg | Adverse effects after further 1 mg/kg
3-Allyl 7,11-dimethyldodeca-2(Z),6(E),10-trien-1-ol [3-ally Farnesol] | No toxic response | No visible adverse effects | no adverse effects
3-Vinyl-7,11-dimethyldodeca-2(Z),6(E),10-trien-1-ol [3-vinyl Farnesol] | No toxic response | No visible adverse effects | no adverse effects
